Binding of CDR-mutated scFvs to a peptide of the spike HR2 region

The target is the same throughout: PDVDLGDISGINAS, from the HR2 region of SARS-CoV-2 spike.

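Phage display of a naive human antibody library on the peptide gave the parent. The library (AAYL51) carries one to three amino acid substitutions per variant, with no insertions or deletions. The scFvs were displayed on barcoded MATa yeast, the peptide on MATalpha yeast. After mating in shaken culture at 30 °C for 16 h, diploids were selected and their barcode pairs sequenced. Read counts were normalised to the haploid input and turned into Kd by a linear fit to BCL2-family pairs of known affinity, for each replicate. There are three technical replicates.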

Parent scFv Ab-91: VL joined to VH by a (GGGGS)3 linker. Changes lie in the heavy chain CDRs alone.
VL: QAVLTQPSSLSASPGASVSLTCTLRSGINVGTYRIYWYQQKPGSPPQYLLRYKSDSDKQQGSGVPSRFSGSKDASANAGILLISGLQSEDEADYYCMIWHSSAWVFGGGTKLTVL
VH: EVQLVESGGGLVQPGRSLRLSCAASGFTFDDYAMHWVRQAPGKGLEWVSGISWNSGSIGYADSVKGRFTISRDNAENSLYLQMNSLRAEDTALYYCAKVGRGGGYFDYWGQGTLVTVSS

Substitutions are numbered in sequence along the VH above, starting at 1 (not Kabat).
This list gathers variants with a substitution at F106 (VH, numbered from residue 1).
The Kd shown is the geometric mean over detected replicates; a lower Kd is a better binder.
A pair that was not seen in any replicate is written "not detected"; this usually means weak binding, but a binder can also be missed.
Empty control strains, which show no peptide, gave a signal in 21% of pairings with library AAYL51; the median was 34 µM and 95% of these signals were weaker than 1.8 µM. No background was subtracted.

| changes | apparent Kd | seen in |
|---|---|---|
| S63Q V99Y F106V | 240 µM | 1/3 |
| H35E S55H F106T | not detected | 0/3 |
| D30G Y60V F106N | 29 µM | 1/3 |
| H35D D62L F106E | not detected | 0/3 |
| H35N G50K F106C | not detected | 0/3 |
| F29Y G103C F106N | 270 µM | 2/3 |
| S57N F106P Y108G | 91 nM | 3/3 |
| W53R S63E F106G | 51 µM | 1/3 |
| Y32F S52E F106W | 6.7 µM | 1/3 |
| F27H I58D F106N | 33 µM | 2/3 |
| S57E S63M F106Q | 44 µM | 1/3 |
| T28M V64G F106I | 86 µM | 1/3 |
| F27H S63L F106D | 13 µM | 1/3 |
| D31V F106N Y108T | not detected | 0/3 |
| W53H K65A F106A | 180 µM | 3/3 |
| K65V F106S | 50 µM | 2/3 |
| N54F S63Y F106A | not detected | 0/3 |
| F27A A61G F106K | 120 µM | 3/3 |
| M34L G102L F106L | not detected | 0/3 |
| S52K I58K F106Q | not detected | 0/3 |
| A61K G100R F106Q | 2.0 mM | 1/3 |
| S63I G104F F106R | 520 µM | 2/3 |
| S52V F106C Y108W | 160 µM | 2/3 |
| G26T I58K F106M | not detected | 0/3 |
| F29W K65G F106V | not detected | 0/3 |
| F29S G50W F106L | not detected | 0/3 |
| S55G V64M F106A | 4.9 µM | 3/3 |
| F106C Y108R | 37 µM | 3/3 |
| S52N S57Q F106T | not detected | 0/3 |
| Y32H M34P F106I | 3.8 µM | 1/3 |
| F29M I51G F106N | not detected | 0/3 |
| S55G S57K F106W | 30 µM | 1/3 |
| A33E S52R F106A | not detected | 0/3 |
| S57T Y60C F106A | not detected | 0/3 |
| N54S K65M F106D | not detected | 0/3 |
| I58T F106E D107I | 610 nM | 3/3 |
| S57L G59N F106K | not detected | 0/3 |
| H35I S55I F106K | not detected | 0/3 |
| M34Q Y105T F106L | 87 µM | 3/3 |
| W53T S57P F106W | not detected | 0/3 |
| T28M I58D F106M | 110 µM | 2/3 |
| T28M D62F F106Q | not detected | 0/3 |
| D30F G59V F106C | 1.5 µM | 3/3 |
| M34S Y105A F106K | 9.1 µM | 1/3 |
| G103A Y105V F106Q | not detected | 0/3 |
| M34G S63I F106Y | 240 nM | 2/3 |
| S55K F106A | 69 µM | 3/3 |
| Y32A G102S F106D | 42 µM | 3/3 |
| G104Y Y105E F106S | 200 µM | 2/3 |
| N54C K65L F106V | 28 µM | 3/3 |
| D30W I51C F106P | 46 µM | 3/3 |
| F29V Y32G F106L | not detected | 0/3 |
| T28V I51G F106T | 2.7 mM | 1/3 |
| F106K | 270 nM | 3/3 |
| F29V H35Y F106Q | not detected | 0/3 |
| V99F F106Q Y108E | 200 µM | 2/3 |
| N54F F106S | 31 µM | 3/3 |
| G56S I58K F106G | not detected | 0/3 |
| G59E G100A F106H | not detected | 0/3 |
| Y60I S63F F106Q | not detected | 0/3 |
| M34A F106H D107V | 1.2 µM | 3/3 |
| F29W N54R F106M | 1.7 µM | 2/3 |
| F29M A61H F106P | not detected | 0/3 |
| F27T M34V F106G | 120 µM | 2/3 |
| D31M Y32W F106R | 1.2 µM | 3/3 |
| I51H S63K F106C | 88 µM | 3/3 |
| D31I I58C F106N | 14 µM | 3/3 |
| G26P F106N | not detected | 0/3 |
| W53P D62W F106Y | 190 nM | 3/3 |
| F27Q A33Y F106K | 2.3 µM | 1/3 |
| S52K G100Y F106D | not detected | 0/3 |
| A33G S63I F106C | not detected | 0/3 |
| G100V Y105L F106L | 5.7 nM | 3/3 |
| G59W F106C | 150 µM | 2/3 |
| A33N I58K F106V | not detected | 0/3 |

From the AlphaSeq antibody data of Engelhart et al. 2022 (doi:10.1038/s41597-022-01779-4), copy in the FLAb collection.